Test results from patent publication US9714254B2, “Anilino podophyllin derivative having antitumor activity, method for preparation thereof, and use thereof” (HUBEI UNIVERSITY OF TECHNOLOGY, priority 2013, dated 2017).

Columns and labels:
[1] = system: BGC823 cell line; assay: MTT test of inhibiting tumor cell activity, BGC823; settings: read-out: Cytotoxic activity (IC50, μM) BGC823, BGC823 cells, 48 h cultivation
[2] = system: Hela cell line; assay: MTT test of inhibiting tumor cell activity, Hela; settings: read-out: Cytotoxic activity (IC50, μM) Hela, Hela cells, 48 h cultivation
[3] = system: A549 cell line; assay: MTT test of inhibiting tumor cell activity, A549; settings: read-out: Cytotoxic activity (IC50, μM) A549, A549 cells, 48 h cultivation

Substance	IC50 [1] [µM]	IC50 [2] [µM]	IC50 [3] [µM]
4-N-(4-chloro-3-methylaniline)-4-deoxy-4′-demethylepipodophyllotoxin [Compound 2]	1.77 ± 0.37	2.01 ± 1.21	
4-N-(2-ethyl-5-nitroaniline)-4-deoxy-4′-demethylepipodophyllotoxin [Compound 18]	27.12 ± 0.24		4.28 ± 0.48
